The values that follow come from ChEMBL document CHEMBL4346760, “Alkynamide phthalazinones as a new class of TbrPDEB1 inhibitors (Part 2)” (Bioorg Med Chem, 2019).

The experiment in a line: Selectivity index, ratio of pKi for Trypanosoma brucei PDEB1 to pKi for human PDE4B using cAMP as substrate incubated for 20 mins by PDELight HTS cAMP phosphodiesterase Kit based luminometry.
In the case of `COc1ccc(C2=NN(C(C)C)C(=O)[C@@H]3CC=CC[C@H]23)cc1C#CC(=O)NCc1cnn(C)c1`, the Ratio pKi came out at 0.7. As for `COc1ccc(C2=NN(C3CCCCCC3)C(=O)[C@@H]3CC=CC[C@H]23)cc1C#CC(N)=O`, the Ratio pKi is -0.3. Consider `COc1ccc(C2=NN(C(C)C)C(=O)[C@@H]3CC=CC[C@H]23)cc1C#CC(=O)NCc1ccncc1` (relative stereo), for which the Ratio pKi came out at 6. As to `COc1ccc(C2=NN(C(C)C)C(=O)[C@@H]3CC=CC[C@H]23)cc1C#CC(=O)NCC1CCCO1` (relative stereo), the Ratio pKi came to 0.5.
